Rows were chosen to be rich in hits. Some 0.91% of all compounds tested hit in one or more screens of this group.
UUG fidelity: alters start codon recognition fidelity in yeast | S. cerevisiae UUG-firefly luciferase reporter, luminescence/redox ratio | activity score, % at 18.7 µM | hit rate 0.13% among 350,000 | AID 602363;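 active means replicate mean at a twofold rise or more, about +100% in these data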;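 further: firefly luciferase made from a UUG start codon reports start codon fidelity; reporter light over untreated wells divided by growth signal over untreated wells; some hits fall short of that in this replicate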
FN deposit inh: inhibitors of fibronectin matrix deposition, primary screen, AH1F cells, Alexa488-fibronectin fluorescence, plate reader. AH1F fibroblasts, overnight. inhibition, % at 12.6 µM. 350,000 compounds, 0.086% hits. AID 743247, 2014;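 active means mean inhibition across replicates of 30% or more, regardless of how many single replicates reach that level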;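 further: positive control wells lacked labelled fibronectin entirely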
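Material: AH1F fibroblast monolayer depositing Alexa488-labelled fibronectin into matrix | Input: 10000 AH1F cells/well | Medium: DMEM plus 2% serum, read in PBS | Reagent: Alexa488-fibronectin, 24 nM final in well | Compound dosing: One dose per compound, pinned | Schedule: 1 h adhesion, overnight exposure | Measured by: Fluorescence at 485 nm excitation, 525 nm emission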
hiPSC survival: enhancers of single-cell hiPSC survival, primary screen, ATPlite luminescence; 100% = ROCK inhibitor wells, 0% = DMSO; survival enhancement, % at 20 µM; 360,000 compounds, 0.044% hits; AID 602274, 2012; in the data active means survival enhancement above about 18%;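 further: cells exposed to compounds for 16 hours before the ATP read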
C2C12 statin: suppressors of statin myotoxicity in C2C12 myotubes, primary screen, cell-based, single point, plate reader; 330,000 compounds, 0.78% hits; C2C12 myotubes + simvastatin, ATP luminescence, 48 h; scaled: DMSO 0, geranylgeraniol control 100; rescue of ATP level, % at 7.49 µM;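 active means mean ATP rescue above about 67%, or every replicate alone reaching that limit, limit read from the data, passing the limit was not always enough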;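 further: myotubes were challenged with 10 µM simvastatin during compound exposure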
PGC1a acetyl inh: inhibitors of PGC1a acetylation signal, primary screen, cell-based, U2OS, AlphaScreen, inhibitor mode. AlphaScreen anti-acetyl-lysine; with virally co-expressed GCN5 acetyltransferase. inhibition, % at 15.6 µM. 350,000 compounds, 0.17% hits;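 active means every replicate shows inhibition of at least 40%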;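 further: 0% = neutral control wells and 100% = positive control wells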
* marks the source's active call; other numbers are inactive results; . = no result given; ! = a repeat was not active.

A first look, five compounds:
smiles,UUG fidelity,FN deposit inh,hiPSC survival,C2C12 statin,PGC1a acetyl inh
O=C(Nc1ccc2c(c1)[C@@H]1C[C@@H](CC(=O)N3CCCCC3)O[C@@H](CO)[C@@H]1O2)Nc1ccccc1F,-0.1,-5.1,.,6.1,-15.3
Cc1cc(NC(=O)CCCSc2nc(-c3ccco3)cc(C(F)(F)F)n2)no1,-0.2,.,-2.4,-19.7,-16.5
O=C(CSc1nc(-c2ccco2)cc(C(F)(F)F)n1)NCCc1ccccc1,.,.,-2.0,89.3*,2.2
O=C(CCCSc1nc(-c2ccco2)cc(C(F)(F)F)n1)NCc1cccs1,12.2,.,-0.4,125.7*,-15.6
O=S(=O)(N/N=C\c1ccc(-c2ccccc2Cl)o1)c1ccccc1,-18.6,18.7,-0.5,118.1*,-16.9

The list itself, from the start:
smiles,UUG fidelity,FN deposit inh,hiPSC survival,C2C12 statin,PGC1a acetyl inh
O=C(Nc1ccc2c(c1)[C@@H]1C[C@@H](CC(=O)N3CCCCC3)O[C@@H](CO)[C@@H]1O2)Nc1ccccc1F,-0.1,-5.1,.,6.1,-15.3
Cc1cc(NC(=O)CCCSc2nc(-c3ccco3)cc(C(F)(F)F)n2)no1,-0.2,.,-2.4,-19.7,-16.5
O=C(CSc1nc(-c2ccco2)cc(C(F)(F)F)n1)NCCc1ccccc1,.,.,-2.0,89.3*,2.2
O=C(CCCSc1nc(-c2ccco2)cc(C(F)(F)F)n1)NCc1cccs1,12.2,.,-0.4,125.7*,-15.6
O=S(=O)(N/N=C\c1ccc(-c2ccccc2Cl)o1)c1ccccc1,-18.6,18.7,-0.5,118.1*,-16.9
O=C(c1ccccn1)N1CC2(C1)[C@@H](c1ccccc1)[C@@H](CO)N2C(=O)C1CC1,.,-8.5,.,.,3.0
O=C(CSc1nnc(-c2ccncc2)n1Cc1ccco1)Nc1nc(-c2ccccc2)cs1,-10.5,-7.8,-1.8,97.5*,-18.3
O=C(CSc1nnc(-c2ccncc2)n1Cc1ccco1)Nc1ccccc1Cl,.,-7.8,-1.2,.,-12.6
COc1ccc(OCC(=O)Nc2ccc(S(=O)(=O)Nc3cc(C)on3)cc2)cc1,-19.3,-1.2,0.1,-17.6,-0.8
Cc1cc(NS(=O)(=O)c2ccc(NC(=O)COc3c(C)cc(Br)cc3C)cc2)no1,-8.0,-3.0,-0.6,-4.2,84.6*
COCC(=O)N1[C@@H]2c3cccc(=O)n3C[C@@H]2[C@@H](CO)[C@@H]1C(=O)NCc1ccccc1Cl,.,.,.,.,-0.8
C=CCn1c(SCC(=O)NCc2ccco2)nc2ccccc2c1=O,.,-1.0,-0.5,.,1.2
O=C(CSc1nc2sc3c(c2c(=O)n1-c1ccccc1)CCCC3)NCc1ccco1,-25.7,5.2,0.4,7.1,-14.5
COCCCn1c(SCC(=O)NCc2ccco2)nc2sc3c(c2c1=O)CCC3,-6.1,6.0,-0.5,132.3*,-7.2
O=C(CCn1c(SCC(=O)NCc2ccco2)nc2ccccc2c1=O)NCCc1ccccc1,-14.8,-4.1,0.9,102.3*,5.1
CO[C@H]1CN(C)C(=O)c2ccc(NC(=O)c3cnccn3)cc2OC[C@H](C)N(C(C)=O)C[C@H]1C,-1.6,2.7,.,3.0,14.5
Cc1ccc(S(=O)(=O)N(C)Cc2ccc(-c3nnco3)cc2)cc1,-2.6,.,-1.7,108.1*,-11.4
O=C(Nc1ccc2c(c1)[C@H]1C[C@@H](CC(=O)N3CCOCC3)O[C@H](CO)[C@H]1O2)C1CCOCC1,1.8,-8.4,.,4.4,0.6
COc1ccc(Oc2coc3c(CN(C)C)c(O)ccc3c2=O)cc1,-20.1,4.7,7.7,117.7*,-4.4
Cc1cc(C)cc(Oc2coc3c(CN(C)C)c(O)ccc3c2=O)c1,-3.3,4.3,-0.7,0.1,.
C[C@H]1CN([C@@H](C)CO)C(=O)c2cccc(NC(=O)Nc3ccc(C(F)(F)F)cc3)c2O[C@@H]1CN(C)S(=O)(=O)c1ccc(Cl)cc1,-15.1,-2.0,6.6,112.6*!,-10.3
C[C@@H]1CN([C@@H](C)CO)C(=O)c2cccc(NC(=O)c3ccncc3)c2O[C@@H]1CN(C)S(=O)(=O)c1ccc(Cl)cc1,-1.5,.,.,73.0*,-1.0
C[C@H](CO)N1C[C@H](C)[C@@H](CN(C)S(=O)(=O)c2ccc(Cl)cc2)Oc2c(NC(=O)Nc3ccc(C(F)(F)F)cc3)cccc2C1=O,-16.6,.,.,102.5*,-2.1
C[C@H](CO)N1C[C@H](C)[C@H](CN(C)S(=O)(=O)c2ccc(Cl)cc2)Oc2c(NC(=O)c3ccncc3)cccc2C1=O,-20.0,.,.,-5.7,9.1
COc1cccc(S(=O)(=O)N(C)C[C@H]2OCc3ccccc3-c3c(n(C)c4ccccc34)C(=O)N([C@@H](C)CO)C[C@H]2C)c1,.,-7.2,.,69.0*,-14.7
COCC(=O)Nc1ccc2c(c1)[C@@H]1C[C@H](CC(=O)NCc3ccccc3F)O[C@H](CO)[C@@H]1O2,.,.,.,-1.4,2.7
COc1ccc(S(=O)(=O)Nc2cccc3c2O[C@@H](CN(C)S(=O)(=O)c2ccc(Cl)cc2)[C@@H](C)CN([C@@H](C)CO)C3=O)cc1,-7.8,.,.,-55.5,1.9
COc1ccc(S(=O)(=O)Nc2cccc3c2O[C@H](CN(C)S(=O)(=O)c2ccc(Cl)cc2)[C@H](C)CN([C@@H](C)CO)C3=O)cc1,-5.6,.,.,91.0*,5.3
Cc1cc(=O)[nH]c(NN=Cc2cc(Br)ccc2O)n1,-15.8,20.0,-0.3,-20.6,49.7*
Cn1ncc(N=Cc2ccccc2O)c1C(=O)Nc1ccccc1,-6.3,.,-1.3,117.5*,2.2
CCCCCCOc1ccc(C(CC(N)=O)C(=O)O)cc1 (stereo unspecified),-26.0,-0.1,1.8,107.2*,8.7
COc1ccc(OC)c(C(c2nnnn2Cc2ccccc2)N2CCC(C(N)=O)CC2)c1 (stereo unspecified),2.7,.,5.1,-1.2,-6.7
COc1ccc(Cn2nnnc2C(c2ccccc2OC)N2CCC(C(N)=O)CC2)cc1 (stereo unspecified),-13.2,.,-1.4,100.5*,1.7
COc1ccc(OC)c(C(c2nnnn2Cc2ccccc2)N2CCN(C3CCCCC3)CC2)c1 (stereo unspecified),-7.7,.,1.9,121.4*,13.3
COc1ccccc1C(c1nnnn1Cc1ccccc1)N1CCN(C2CCCC2)CC1 (stereo unspecified),-2.6,.,-0.3,-6.1,-6.0
C[C@@H]1CN([C@H](C)CO)S(=O)(=O)c2ccc(C#CC3CC3)cc2O[C@H]1CN(C)C(=O)C1CC1,9.0,2.3,.,-0.9,-3.3
CCCNC(=O)[C@@H]1[C@@H](CO)[C@@H]2Cn3c(ccc(C4=CCCC4)c3=O)[C@@H]2N1Cc1ccccc1,.,.,.,19.2,.
O=C1CN(S(=O)(=O)c2ccccc2)C[C@@H]2[C@@H](c3ccc(C#CCc4ccccc4)cc3)[C@@H](CO)N12,.,.,.,.,11.3
COc1ccc2c(c1)c1ccc3c(c1n2C)C(=O)C=CC3=O,-17.2,0.2,28.5*,-84.0,0.4
Cc1nnc(N2CCN(c3ccccc3)CC2)[nH]c1=O,-21.6,.,-0.4,97.7*,-0.5
COc1ccc(OCCCC(=O)Nc2cc([N+](=O)[O-])ccc2C)cc1,-8.2,.,2.1,73.4*,-10.7
CN(C)c1ccc2c(c1)[C@@H]1C[C@@H](CC(=O)NCc3ccncc3)O[C@@H](CO)[C@@H]1O2,.,-1.1,.,-2.2,4.5
CCC[C@H]1COCCS(=O)(=O)N1Cc1ccccc1F,-6.6,-5.6,-1.5,79.2*,-9.6
CCCC(=O)N1CCC2(CC1)CN(C(=O)C1CCOCC1)[C@H](CO)c1[nH]c3cc(OC)ccc3c12,.,.,.,.,5.2
COc1ccc(/C=C2\N=C(SC)SC2=O)cc1OC,-9.3,.,1.2,106.5*,5.0
CSC1=N/C(=C\c2ccc(C)cc2)C(=O)S1,-13.0,.,-5.0,1.8,-16.0

Screening results (PubChem BioAssay)
